Tests used:
[1] = target: T1, CD47:Fc (Sino Biological, cat # 12283-H02H) (UniProt Q08722, in part); test: bio-layer interferometry (Blitz), biosensor pre-loaded with CD47:Fc; concentration not shown
T1 construct: Bought reagent; not shown: Fc part of the bought fusion
Description: Methods and resultt—The biosensor was pre-loaded with CD47:Fc, which led to a stable association plateau (FIG. 3A). Upon subsequent incubation with his-tagged SIRPα-41BBL (SEQ ID NO: 5) a rapid association of the his-tagged SIRPα-41BBL to CD47:Fc was detected (FIG. 3A). […] Upon reaching a stable association plateau, the biosensor was washed with medium to determine the off-rate of the his-tagged SIRPα-41BBL from CD47:Fc.

Amino acid sequences for entries named in this document (tags omitted). A change or cut given only in a name is not applied to a line headed by its entry. Residues count along the entry.
UniProt Q08722, 19-139 limits assumed: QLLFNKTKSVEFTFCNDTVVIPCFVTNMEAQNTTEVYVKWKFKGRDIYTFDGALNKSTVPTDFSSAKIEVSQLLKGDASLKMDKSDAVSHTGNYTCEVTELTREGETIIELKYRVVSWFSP
UniProt Q07011: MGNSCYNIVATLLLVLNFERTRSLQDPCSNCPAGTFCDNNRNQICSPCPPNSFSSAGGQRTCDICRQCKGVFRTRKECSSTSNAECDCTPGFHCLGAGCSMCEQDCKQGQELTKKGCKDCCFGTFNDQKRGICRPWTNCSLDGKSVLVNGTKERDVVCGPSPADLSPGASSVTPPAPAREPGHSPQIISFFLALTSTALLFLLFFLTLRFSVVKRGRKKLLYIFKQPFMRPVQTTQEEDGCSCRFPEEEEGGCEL

[2] = target: T2, 41BB:Fc (Sino Biological, cat # 10041-H03H) (UniProt Q07011, in part); test: bio-layer interferometry (Blitz), biosensor pre-loaded with 41BB:Fc; concentration not shown
T2 construct: Bought reagent; not shown: Fc part of the bought fusion
Description: Upon similar loading of the biosensor with 41BB:Fc, binding of the 41BBL unit of his-tagged SIRPα-41BBL (SEQ ID NO: 5) was evaluated (FIG. 3B). As with the SIRPα domain, the 41BBL domain of the his-tagged SIRPα-41BBL rapidly bound to its target receptor (FIG. 3B), with the off-rate for the 41BBL/41BB interaction being also very slow, as evident from the limited dissociation occurring during the last dissociation phase.

B1: PD1-CD70 protein (SEQ ID NO: 6) (other)
chain: HHHHHHPGWFLDSPDRPWNPPTFSPALLVVTEGDNATFTCSFSNTSESFVLNWYRMSPSNQTDKLAAFPEDRSQPGQDCRFRVTQLPNGRDFHMSVVRARRNDSGTYLCGAISLAPKAQIKESLRAELRVTERRAEVPTAHPSPSPRPAGQFQTLVGQRFAQAQQQLPLESLGWDVAELQLNHTGPQQDPRLYWQGGPALGRSFLHGPELDKGQLRIHRDGIYMVHIQVTLAICSSTTASRHHPTTLAVGICSPASRSISLLRLSFHQGCTIASQRLTPLARGDTLCTNLTGTLLPSRNTDETFFGVQWVRP
notes: also called control protein PD1-CD70
B1: no binding [1]; no binding [2].
